We go through one molecule from paper PMC5447729 (Frontiers in Pharmacology, 2017).

Amino acid sequences for entries named in this document (tags omitted). A change or cut given only in a name is not applied to a line headed by its entry.
UniProt P37231: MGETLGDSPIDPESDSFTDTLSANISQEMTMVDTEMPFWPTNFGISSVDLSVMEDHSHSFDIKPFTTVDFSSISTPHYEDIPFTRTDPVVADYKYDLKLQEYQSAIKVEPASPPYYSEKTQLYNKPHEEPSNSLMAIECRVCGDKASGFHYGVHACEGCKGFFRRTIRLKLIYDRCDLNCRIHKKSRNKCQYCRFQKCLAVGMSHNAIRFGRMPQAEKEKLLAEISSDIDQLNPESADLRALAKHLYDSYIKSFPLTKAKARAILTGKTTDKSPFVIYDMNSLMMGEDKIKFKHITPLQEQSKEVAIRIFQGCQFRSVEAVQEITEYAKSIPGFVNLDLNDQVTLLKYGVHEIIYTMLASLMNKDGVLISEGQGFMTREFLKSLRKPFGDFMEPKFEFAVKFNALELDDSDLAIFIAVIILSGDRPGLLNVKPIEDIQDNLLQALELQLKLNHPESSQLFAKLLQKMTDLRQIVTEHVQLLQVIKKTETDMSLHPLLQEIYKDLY

The subject of data set [1] is db/db mice. In words: Three-week oral treatment of diabetic db/db mice (FBG, ITT, serum parameters, organ indices). The note with it: end of 3-week treatment. In kind it is in vivo. The protocol: All animal experiments were performed according to procedures approved by the Animal Experimentation Ethics Committee of the Beijing Institute of Pharmacology and Toxicology for animal care, handling and termination. Eight-week-old male homozygous C57BLKS/J db/db mice were obtained from the Model Animal Research Centre of Nanjing University (Nanjing, China) and fed a standard mouse diet. Male C57BL/6 mice (4 weeks old) were obtained from the Laboratory Animal Centre of the Beijing Institute of Pharmacology and Toxicology and fed a high-fat, high-sugar diet for 16 weeks to induce diet-induced obesity (DIO). […] Body weight (BW) and fasting blood glucose were recorded regularly during the treatment period. […] Blood glucose was monitored at 0, 30, 60, 90, and 120 min after the oral administration of 1 g kg^−1 dextrose. […]
Serum triglyceride (TG), cholesterol, free fatty acid (FFA), and glucose levels were measured by using commercial kits (Nanjing Jiancheng Bioengineering Institute, Nanjing, China) according to the manufacturer's instructions. Serum adiponectin, monocyte chemotactic protein 1(MCP1), Interleukin-6 (IL-6), Receptor activator of nuclear factor kappa-B ligand (RANKL), and Adrenocorticotropic Hormone (ACTH) were quantified using a multiplex Luminex assay (Millipore/Linco Research).

Data set [2] concerns DIO mice. In words: Three-week oral treatment of insulin-resistant DIO mice (OGTT, FBG, serum factors, organ indices, liver lipids, histology). In kind it is in vivo. The note with it: RSG 10 mg kg−1, INT131 30 mg kg−1, especially for INT131. The protocol: All animal experiments were performed according to procedures approved by the Animal Experimentation Ethics Committee of the Beijing Institute of Pharmacology and Toxicology for animal care, handling and termination. Eight-week-old male homozygous C57BLKS/J db/db mice were obtained from the Model Animal Research Centre of Nanjing University (Nanjing, China) and fed a standard mouse diet. Male C57BL/6 mice (4 weeks old) were obtained from the Laboratory Animal Centre of the Beijing Institute of Pharmacology and Toxicology and fed a high-fat, high-sugar diet for 16 weeks to induce diet-induced obesity (DIO). […] Compounds were dissolved in DMSO and suspended in 0.5% carboxymethylcellulose. Body weight (BW) and fasting blood glucose were recorded regularly during the treatment period. […] Blood glucose was monitored at 0, 30, 60, 90, and 120 min after the oral administration of 1 g kg^−1 dextrose. […]
Serum triglyceride (TG), cholesterol, free fatty acid (FFA), and glucose levels were measured by using commercial kits (Nanjing Jiancheng Bioengineering Institute, Nanjing, China) according to the manufacturer's instructions. Serum adiponectin, monocyte chemotactic protein 1(MCP1), Interleukin-6 (IL-6), Receptor activator of nuclear factor kappa-B ligand (RANKL), and Adrenocorticotropic Hormone (ACTH) were quantified using a multiplex Luminex assay (Millipore/Linco Research). […]

Data set [3] concerns the target T1, hPPARγ2 / hMED1 (Homo sapiens, UniProt P37231).
T1 construct: expressed in transfected cells; host or cells: HEK293T (HEK293) and CHO cells
In words: Mammalian two-hybrid assay of MED1 recruitment (pACT-hPPARγ2, pBIND-hMED1, pG5-luc). It is filed as cell-based. The note with it: 0.01 μM, HEK293 and CHO cells.

Take `CN(CCOc1ccc(CC2SC(=O)NC2=O)cc1)c1ccccn1` (stereo not shown) [RSG, 5-[[4-[2-[methyl(pyridin-2-yl)amino]ethoxy]phenyl]methyl]-1,3-thiazolidine-2,4-dione]: in data set [1], the BAT mass index result is recorded as “increased” and the “liver (hepatic) weight index” value is reported as “increased”. For the same molecule, the BAT index result in data set [2] is on record as “increase”. In addition, in data set [3], the MED1 recruitment entry was “recruited substantial amounts of MED1”.
